Data from US20160363584A1, “SYSTEMS AND METHODS FOR STUDYING INFLAMMATION-DRUG INTERACTIONS” (Hepregen Corporation, priority 2012, published 2016).

Test system: HepatoPac™-Kupffer cell co-cultures
Experiment: IL-6 secretion after cytokine exposure of HepatoPac-Kupffer cell co-cultures
Assay type: cell-based, human
Conditions: 2 or 4 day treatment
Experimental: Cultures were exposed to IL-2, IL-1B and TNF-α and secretion of IL-6 into the culture supernatant was measured. […] IL-2 and TNF-α had no effect on IL-6 secretion.

Question: For IL-2: cytokine, which “IL-6 secretion into the culture supernatant” value is on record?
Answer: no effect
